The target in experiment [1] is T1, Sodium-dependent noradrenaline transporter (Homo sapiens, UniProt P23975). Description: Enhancing of [125I]RTI-55 binding to recombinant human NET expressed in HEK293 cell membranes preincubated for 10 mins followed by radioligand addition measured after 90 mins by micro beta scintillation counting analysis.
Experiment [2] deals with T1, Sodium-dependent noradrenaline transporter. Description: Inhibition of recombinant human NET expressed in HEK293 […] assessed as reduction in [3H]-norepinephrine uptake incubated for 22 mins by micro beta scintillation counting analysis.
Experiment [3] concerns the target Sodium-dependent dopamine transporter (Mus musculus, UniProt Q61327). Nature of the experiment: Inhibition of [125I]RTI-55 binding to mouse DAT expressed in HEK293 cells preincubated for 10 mins followed by radioligand addition measured after 90 mins by micro beta scintillation counting analysis. The class given is cell-based.

Sequences of proteins named here, by UniProt entry; tags and fusion partners are left off.
UniProt P23975, whole entry: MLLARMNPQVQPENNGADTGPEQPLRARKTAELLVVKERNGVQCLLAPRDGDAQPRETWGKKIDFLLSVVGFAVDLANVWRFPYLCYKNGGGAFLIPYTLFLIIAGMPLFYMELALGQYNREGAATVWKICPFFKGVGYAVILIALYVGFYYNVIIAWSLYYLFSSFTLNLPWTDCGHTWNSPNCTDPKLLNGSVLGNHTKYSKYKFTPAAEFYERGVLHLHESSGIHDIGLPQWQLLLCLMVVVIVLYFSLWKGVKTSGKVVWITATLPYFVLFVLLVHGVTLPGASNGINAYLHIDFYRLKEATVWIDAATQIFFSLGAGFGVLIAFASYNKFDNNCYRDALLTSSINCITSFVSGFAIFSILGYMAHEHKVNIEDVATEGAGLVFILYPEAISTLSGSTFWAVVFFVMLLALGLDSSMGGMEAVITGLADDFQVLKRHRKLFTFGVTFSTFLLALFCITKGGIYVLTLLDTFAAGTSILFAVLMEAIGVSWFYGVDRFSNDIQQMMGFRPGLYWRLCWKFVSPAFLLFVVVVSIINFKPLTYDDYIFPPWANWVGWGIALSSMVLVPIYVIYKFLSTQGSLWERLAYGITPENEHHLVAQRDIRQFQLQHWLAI
UniProt Q61327, whole entry: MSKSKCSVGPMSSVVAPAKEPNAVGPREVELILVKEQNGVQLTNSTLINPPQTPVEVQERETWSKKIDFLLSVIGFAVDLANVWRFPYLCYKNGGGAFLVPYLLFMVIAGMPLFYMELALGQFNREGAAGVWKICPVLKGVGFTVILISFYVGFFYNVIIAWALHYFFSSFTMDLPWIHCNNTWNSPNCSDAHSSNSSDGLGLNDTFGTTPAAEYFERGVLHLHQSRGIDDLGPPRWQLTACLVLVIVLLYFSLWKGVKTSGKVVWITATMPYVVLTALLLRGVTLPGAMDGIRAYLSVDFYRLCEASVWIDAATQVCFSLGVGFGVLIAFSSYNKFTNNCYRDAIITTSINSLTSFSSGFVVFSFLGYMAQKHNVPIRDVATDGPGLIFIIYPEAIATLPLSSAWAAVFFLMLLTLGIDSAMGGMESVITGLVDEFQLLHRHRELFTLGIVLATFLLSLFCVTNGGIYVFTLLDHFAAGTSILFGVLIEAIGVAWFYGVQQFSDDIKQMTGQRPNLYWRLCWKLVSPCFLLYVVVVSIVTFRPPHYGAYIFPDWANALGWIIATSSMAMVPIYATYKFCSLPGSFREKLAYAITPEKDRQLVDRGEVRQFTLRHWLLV

One may read the EC50 as the concentration that produces a half-maximal response. What is called IC50 is the midpoint of a concentration-inhibition curve. As a reminder, the Ki is a measure of affinity in units of concentration, obtained from inhibition or displacement. A low value points to a stronger hold on the target.

On to `CNC(=O)[C@@]12C[C@@H]1[C@@H](n1cnc3c(NC)nc(C#Cc4ccc(F)c(F)c4)nc31)[C@H](O)[C@@H]2O`, for which, in experiment [1], the EC50 was determined as 1.76 µM. For the same molecule, in experiment [2], the IC50 is over 10 µM.
Molecule `OC1(c2ccc(Cl)cc2)c2ccccc2C2=NCCN21` (racemic) [MAZINDOL] registered a Ki in experiment [3] of 0.404 µM.
